Three compounds from patent publication US20250170130A1, “MODULATORS OF MYC FAMILY PROTO-ONCOGENE PROTEIN” (Nalo Therapeutics, priority 2022, published 2025) can be followed below.

Sequences of proteins named here, by UniProt entry; tags and fusion partners are left off. A change or cut given only in a name is not applied to a line headed by its entry.
UniProt P01106: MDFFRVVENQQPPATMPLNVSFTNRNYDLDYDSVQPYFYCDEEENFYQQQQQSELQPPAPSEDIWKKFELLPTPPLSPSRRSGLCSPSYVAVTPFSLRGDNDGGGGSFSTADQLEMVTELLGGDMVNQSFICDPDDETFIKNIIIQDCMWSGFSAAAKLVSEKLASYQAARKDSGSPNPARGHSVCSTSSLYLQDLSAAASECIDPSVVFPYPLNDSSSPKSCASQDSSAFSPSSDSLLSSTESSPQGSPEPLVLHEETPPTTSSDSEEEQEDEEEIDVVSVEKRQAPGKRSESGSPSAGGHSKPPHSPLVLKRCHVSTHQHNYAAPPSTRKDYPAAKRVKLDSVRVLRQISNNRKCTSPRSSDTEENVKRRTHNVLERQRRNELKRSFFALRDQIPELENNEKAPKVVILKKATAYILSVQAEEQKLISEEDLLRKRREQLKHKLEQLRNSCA

The target in one assay is T1, MycN (Homo sapiens, UniProt P04198).
T1 construct: endogenous in cells; host or cells: SK-N-BE(2)
T1 sequence (P04198 1-464): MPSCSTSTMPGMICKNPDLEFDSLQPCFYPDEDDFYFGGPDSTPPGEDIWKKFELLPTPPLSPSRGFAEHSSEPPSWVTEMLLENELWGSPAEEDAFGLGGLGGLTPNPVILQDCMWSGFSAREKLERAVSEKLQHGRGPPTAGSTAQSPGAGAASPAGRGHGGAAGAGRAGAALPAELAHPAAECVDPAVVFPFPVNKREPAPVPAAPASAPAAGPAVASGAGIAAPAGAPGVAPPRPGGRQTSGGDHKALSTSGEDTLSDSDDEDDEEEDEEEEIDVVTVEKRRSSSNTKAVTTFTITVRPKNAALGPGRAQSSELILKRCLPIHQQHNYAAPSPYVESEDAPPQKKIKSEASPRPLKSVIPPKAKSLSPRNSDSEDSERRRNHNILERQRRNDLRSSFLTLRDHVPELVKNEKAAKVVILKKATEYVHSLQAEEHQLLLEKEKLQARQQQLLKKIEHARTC
Kind of assay: Degradation of MycN protein in SK-N-BE(2) cells, JESS/Western blot of lysates. Type of assay: cell-based. Particulars: SKNBE2, 24 h; for Dmax at 0.5 µM: read-out: % Degradation of MycN (SKNBE2) 24 h, 0.5 μM; for Dmax at 1 µM: read-out: % Degradation of MycN (SKNBE2) 24 h, 1 μM; for Dmax at 3 µM: read-out: % Degradation of MycN (SKNBE2) 24 h, 3 μM; for Dmax at 6 µM: read-out: % Degradation of MycN (SKNBE2) 24 h, 6 μM. As to the method:
(§1) For L363 cells (suspension), 1E6 cells were plated into each well of a 6 well plate. For SK-N-BE(2) cells (adherent), 5E5 cells were plated into each well of a 6 well dish. Cells were cultured for 24 hrs then treated with exemplary compounds at 0.1, 0.5, 1.0, 3.0 and 6.0 mM final assay concentrations plus DMSO control. All compounds were diluted to 10 mM in DMSO. Cells were treated with the compound for 24 hrs, then for both cell types, media containing cells were removed from wells into a 15 ml centrifuge tube, and remaining adherent SK-N-BE(2) cells were also scraped from the wells into the appropriate tubes. Tubes were centrifuged, cells were washed with PBS then re-centrifuged to pellet cells. A RIPA buffer cocktail was added to the cells on ice for 5 mins. Cell lysates were clarified by centrifugation and stored at −80 degrees until required. BCA assay was performed on each lysate to determine the protein concentration.
(§2) Once an appropriate lysate concentration and antibody concentration was determined, samples were screened in the JESS technology (Protein Simple, San Jose, CA—https://www.proteinsimple.com/jess.html).
(§3) Target protein antibodies (n-myc and c-myc) were detected in the chemi-luminescence channel and loading controls (tubulin and GAPDH) were detected using a Near Infra Red (NIR) labeled secondary antibody.
For SK-N-EB2 adherent cells, 5E5 cells in 1.9 mls media were plated into 6 well dishes and incubated for 24 hrs. Exemplary compounds were added (100 ul, 1 in 20 dilution in media) to each well (final assay concentration 6, 3, 1 and […]) together with DMSO control wells and incubated for 24 hrs. Cells were scrapped off the plate, centrifuged, washed with PBS, centrifuged, then a RIPA buffer cocktail added to the cells (100 ul), centrifuged and stored at −80 for later analysis. For L363 suspension cells, 1E6 cells were plated into 24 well dishes (950 ul media) and incubated for 24 hrs. Exemplary compounds were added (50 ul, 1 in 20 dilution in media) to each well (final assay concentration 6, 3, 1 and […]) together with DMSO control wells and incubated for 24 hrs. Cells were aspirated into tubes, centrifuged, washed with PBS, centrifuged, then a RIPA buffer cocktail added to the cells (100 ul), centrifuged and stored at −80 for later analysis.
(§4) For Western blot, a BCA (total protein) assay was run on all samples, these were then run in batches of 5 compounds plus control (DMSO) on each Western blot run—n-myc and c-myc were run in separate experiments in the chemiluminescence channel. Both tubulin and GAPDH were run as loading controls in all lanes in the near infra red channel.

The target of another assay is T2, MycC (Homo sapiens, UniProt P01106).
T2 construct: endogenous in cells; host or cells: L363
Kind of assay: Degradation of MycC protein in L363 cells, JESS/Western blot of lysates. Type of assay: cell-based. As to conditions: L-363, 24 h; for Dmax at 1 µM: read-out: % Degradation of MycC (L-363) 24 h, 1 μM; for Dmax at 3 µM: read-out: % Degradation of MycC (L-363) 24 h, 3 μM; for Dmax at 6 µM: read-out: % Degradation of MycC (L-363) 24 h, 6 μM. As to the method:
as §1, with “Cells were cultured for 24 hrs then treated with exemplary compounds at 0.1, 0.5, 1.0, 3.0 and 6.0 mM final assay concentrations plus DMSO control.” left out
as §2, §3
For SK-N-EB2 adherent cells, 5E5 cells in 1.9 mls media were plated into 6 well dishes and incubated for 24 hrs. […] Cells were scrapped off the plate, centrifuged, washed with PBS, centrifuged, then a RIPA buffer cocktail added to the cells (100 ul), centrifuged and stored at −80 for later analysis. For L363 suspension cells, 1E6 cells were plated into […] (950 ul media) and incubated for 24 hrs. […] Cells were aspirated into tubes, centrifuged, washed with PBS, centrifuged, then a RIPA buffer cocktail added to the cells (100 ul), centrifuged and stored at −80 for later analysis.
as §4

As for `CS(=O)(=O)C1(C#N)CCCN(c2nccc(Nc3cc(C4CC4)[nH]n3)n2)C1` (stereo not drawn) [Compound 185, 1-[4-[(5-Cyclopropyl-1H-pyrazol-3-yl)amino]pyrimidin-2-yl]-3-methylsulfonyl-piperidine-3-carbonitrile], on MycN, the Dmax at 0.5 µM was in the range of 80 to 100%, the Dmax at 1 µM lay in the range of 80 to 100%, the Dmax at 3 µM is 80 to 100% and the Dmax at 6 µM fell in the range of 80 to 100%. Also, at MycC (read-out: % Degradation of MycC (L-363) 24 h, 0.5 μM), the Dmax at 0.5 µM lay in the range of 80 to 100%. For the same compound, on MycC, the Dmax at 1 µM is 80 to 100%, the Dmax at 3 µM lay within 80 to 100% and the Dmax at 6 µM was in the range of 80 to 100%.

For `CNCC12CC(CN(c3nccc(Nc4cc(C5CC5)[nH]n4)n3)C1)C2` [Compound 184, N-(5-Cyclopropyl-1H-pyrazol-3-yl)-2-[1-(methylaminomethyl)-3-azabicyclo[3.1.1]heptan-3-yl]pyrimidin-4-amine], on MycN, the Dmax at 0.5 µM lay within 20 to 49%, the Dmax at 1 µM fell in the range of 50 to 79%, the Dmax at 3 µM lay within 80 to 100% and the Dmax at 6 µM is 80 to 100%. Further, at MycC, the Dmax at 3 µM was in the range of 50 to 79% and the Dmax at 6 µM lay in the range of 80 to 100%.

For the compound `N#CC12CC(C1)N(c1nccc(Nc3cc(C4CC4)[nH]n3)n1)C2` [Compound 186, 2-[4-[(5-cyclopropyl-1H-pyrazol-3-yl)amino]pyrimidin-2-yl]-2-azabicyclo[2.1.1]hexane-4-carbonitrile], at MycN, the Dmax at 0.5 µM is under 20%, the Dmax at 1 µM was under 20%, the Dmax at 3 µM fell in the range of 80 to 100% and the Dmax at 6 µM is 80 to 100%. At MycC, the Dmax at 1 µM is under 20%, the Dmax at 3 µM is 80 to 100% and the Dmax at 6 µM is 80 to 100%.
